Experimental data published in PMC7381729, “A new class of PentixaFor- and PentixaTher-based theranostic agents with enhanced CXCR4-targeting efficiency” (Theranostics, 2020).

Protein sequences, listed by entry. Tags and fused reporters are not part of them.
UniProt P70658, whole entry: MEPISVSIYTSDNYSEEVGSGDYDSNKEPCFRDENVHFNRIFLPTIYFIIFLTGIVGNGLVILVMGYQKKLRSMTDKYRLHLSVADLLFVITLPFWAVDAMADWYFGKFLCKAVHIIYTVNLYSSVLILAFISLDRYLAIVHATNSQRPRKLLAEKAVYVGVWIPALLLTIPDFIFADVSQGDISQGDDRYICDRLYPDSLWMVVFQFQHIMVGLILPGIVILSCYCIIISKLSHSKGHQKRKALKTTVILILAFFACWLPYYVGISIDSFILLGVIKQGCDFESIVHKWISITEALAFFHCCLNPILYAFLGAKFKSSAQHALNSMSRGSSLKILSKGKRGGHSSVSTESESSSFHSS

Target: murine CXCR4 (mCXCR4) (Mus musculus, UniProt P70658)
Test: Competition binding to mCXCR4, Eµ-myc 1080 mouse lymphoma cells, [125I]CPCR4.3 as radioligand
Conditions: read-out: IC50 [nM] to mCXCR4, Eµ-myc 1080 mouse lymphoma cells 200.000 cells/sample, means ± SD of min. three separate experiments

- IC50: > 1000 nM
SMILES: CN1C(=O)[C@@H](Cc2ccc(O)cc2)NC(=O)CNC(=O)[C@H](Cc2ccc3ccccc3c2)NC(=O)[C@H](CCCNC(=N)N)NC(=O)[C@H]1CCCNC(=O)c1ccc(CNC(=O)CN2CCN(CC(=O)O)CCN(CC(=O)O)CCN(CC(=O)O)CC2)cc1 [[^68Ga]PentixaFor, cyclo(D-Tyr^1-D-[NMe]Orn^2(AMBS-[^68Ga]DOTA)-Arg^3-Nal^4-Gly^5), metal not drawn]
